EC50 data for 1 substance are collected here from US12162913B2, “Rhipicephalus nicotinic acetylcholine receptor and pest control acting thereon” (priority 2016, dated 2024).

Protein sequences, listed by entry. Tags and fused reporters are not part of them.
UniProt A0A223PM17, entry or part of it I539V: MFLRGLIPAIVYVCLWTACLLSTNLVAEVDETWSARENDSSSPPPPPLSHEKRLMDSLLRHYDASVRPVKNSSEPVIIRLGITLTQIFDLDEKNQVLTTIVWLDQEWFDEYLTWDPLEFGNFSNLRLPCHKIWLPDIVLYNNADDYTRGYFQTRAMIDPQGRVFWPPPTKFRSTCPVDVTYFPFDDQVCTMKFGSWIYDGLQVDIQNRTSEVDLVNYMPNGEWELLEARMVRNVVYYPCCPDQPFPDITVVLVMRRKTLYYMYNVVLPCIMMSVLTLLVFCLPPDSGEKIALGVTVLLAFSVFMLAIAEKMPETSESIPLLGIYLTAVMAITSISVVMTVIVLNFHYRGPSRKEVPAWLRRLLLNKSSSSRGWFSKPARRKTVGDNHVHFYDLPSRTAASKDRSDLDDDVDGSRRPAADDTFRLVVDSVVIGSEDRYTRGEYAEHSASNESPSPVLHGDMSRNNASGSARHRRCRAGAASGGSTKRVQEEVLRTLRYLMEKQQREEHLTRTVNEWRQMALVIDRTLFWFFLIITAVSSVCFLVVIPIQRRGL
UniProt A0A223PM23, entry or part of it: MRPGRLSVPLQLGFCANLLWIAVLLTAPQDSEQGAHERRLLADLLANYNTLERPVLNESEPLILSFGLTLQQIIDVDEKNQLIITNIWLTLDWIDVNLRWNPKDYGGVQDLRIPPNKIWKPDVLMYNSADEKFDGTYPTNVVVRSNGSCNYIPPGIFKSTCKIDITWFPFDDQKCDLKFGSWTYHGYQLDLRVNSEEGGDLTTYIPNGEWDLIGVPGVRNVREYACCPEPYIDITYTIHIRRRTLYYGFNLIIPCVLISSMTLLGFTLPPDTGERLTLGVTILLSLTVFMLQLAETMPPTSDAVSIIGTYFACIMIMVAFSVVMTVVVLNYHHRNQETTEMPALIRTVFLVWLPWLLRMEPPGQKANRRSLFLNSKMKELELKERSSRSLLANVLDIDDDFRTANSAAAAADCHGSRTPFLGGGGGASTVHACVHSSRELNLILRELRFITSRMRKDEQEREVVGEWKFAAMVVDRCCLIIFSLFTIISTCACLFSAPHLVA

Experiment [1] concerns the target R. microplus nAChRα5 (Rmα5) homopentamers (Rhipicephalus microplus, UniProt A0A223PM17, I539V). It counts as cell-based. The following applies: Xenopus oocytes, membrane potential clamped at −60 mV, dose-response curve; read-out: EC50 (activation of Rmα5 receptor). As for the experimental part: (§1) The plasmids containing the sequences of choice were linearized using BeuI (Spel) FastDigest (ThermoFisher) restriction enzyme for 30 min at 37°, and an aliquot run on an agarose gel to check for complete linearization. The plasmid DNA was phenol:chloroform purified and ethanol precipitated. The pellet was re-suspended in deionized water. Capped RNA was synthesized using mMessage mMachine T7 kit from 1 μg linearized plasmid DNA, the sample phenol:chloroform purified and isopropanol precipitated. The pellet was re-suspended in deionized water to a concentration of 500 ng/μl, analysed on an agarose gel for integrity and stored at −80° C. until further use.
(§2) Xenopus laevis oocytes were purchased as whole ovaries from the European Xenopus Resource Centre (University of Portsmouth), delivered in less than 24 h in Modified Barth's Saline (MBS) on wet ice. Upon arrival, the oocytes were treated with 2 mg/ml collagenase type I (Sigma-Aldrich) in calcium-free Barth's solution (NaCl 88 mM, Tris-HCl 15 mM, NaHCO32.4 mM, MgCl2 0.82 mM, KCl 1 mM, pH 7.5) for 30 min at room temperature. […] Following ligand application, the current required to maintain the membrane potential at −60 mV was measured and used for subsequent data analysis. […]

The target of experiment [2] is R. microplus nAChRα6 (Rma6) homopentamers (Rhipicephalus microplus, UniProt A0A223PM23). Kind of experiment: Two-electrode voltage clamp on Xenopus oocytes expressing Rmα6 homopentamers. Particulars: 15 s pre-application of spinosad followed by 3 s co-application of ACh (10 μM); read-out: provisional EC50 (effect on desensitization rate of ACh responses). It counts as cell-based. As for the experimental part: as §1, §2
(In general: Two-electrode voltage clamp is typically applied to oocytes expressing channels or transporters.)

The term EC50 denotes the concentration giving half of the maximal effect. On to spinosad, for which the EC50 in experiment [1] is 9.39 ± 0.87 µM; in experiment [2] it was 5.1 µM.
